The term IC50 denotes the midpoint of a concentration-inhibition curve. Low values mean higher potency, high ones lower potency.

Molecules are shown by their SMILES.

For this test, the target named is Human immunodeficiency virus type 1 protease (Human immunodeficiency virus 1, UniProt Q72874). Briefly: Inhibitory activity against HIV-1 protease using scintillation proximity assay (SPA assay). A general note: SPA uses beads or plates that emit light when radiolabelled molecules are held near them.

Molecule `CC(C)(C)NC(=O)c1ccccc1OC[C@H](O)[C@H](Cc1ccccc1)NC(=O)[C@H](CC(N)=O)NS(=O)(=O)c1ccc2ccccc2c1` registered a half-inhibitory concentration (IC50) of 425 nM.

These data come from ChEMBL document CHEMBL1130791, “Novel HIV-protease inhibitors containing beta-hydroxyether and -thioether dipeptide isostere surrogates: modification of the P3 ligand” (Bioorg Med Chem Lett, 1998).
